Measured values as given in PMC6832952, “Synthesis and Evaluation of Pyrimidine Steroids as Antiproliferative Agents” (Molecules, 2019).

Protein sequences, listed by entry. Tags and fused reporters are not part of them.
UniProt P08183, whole entry: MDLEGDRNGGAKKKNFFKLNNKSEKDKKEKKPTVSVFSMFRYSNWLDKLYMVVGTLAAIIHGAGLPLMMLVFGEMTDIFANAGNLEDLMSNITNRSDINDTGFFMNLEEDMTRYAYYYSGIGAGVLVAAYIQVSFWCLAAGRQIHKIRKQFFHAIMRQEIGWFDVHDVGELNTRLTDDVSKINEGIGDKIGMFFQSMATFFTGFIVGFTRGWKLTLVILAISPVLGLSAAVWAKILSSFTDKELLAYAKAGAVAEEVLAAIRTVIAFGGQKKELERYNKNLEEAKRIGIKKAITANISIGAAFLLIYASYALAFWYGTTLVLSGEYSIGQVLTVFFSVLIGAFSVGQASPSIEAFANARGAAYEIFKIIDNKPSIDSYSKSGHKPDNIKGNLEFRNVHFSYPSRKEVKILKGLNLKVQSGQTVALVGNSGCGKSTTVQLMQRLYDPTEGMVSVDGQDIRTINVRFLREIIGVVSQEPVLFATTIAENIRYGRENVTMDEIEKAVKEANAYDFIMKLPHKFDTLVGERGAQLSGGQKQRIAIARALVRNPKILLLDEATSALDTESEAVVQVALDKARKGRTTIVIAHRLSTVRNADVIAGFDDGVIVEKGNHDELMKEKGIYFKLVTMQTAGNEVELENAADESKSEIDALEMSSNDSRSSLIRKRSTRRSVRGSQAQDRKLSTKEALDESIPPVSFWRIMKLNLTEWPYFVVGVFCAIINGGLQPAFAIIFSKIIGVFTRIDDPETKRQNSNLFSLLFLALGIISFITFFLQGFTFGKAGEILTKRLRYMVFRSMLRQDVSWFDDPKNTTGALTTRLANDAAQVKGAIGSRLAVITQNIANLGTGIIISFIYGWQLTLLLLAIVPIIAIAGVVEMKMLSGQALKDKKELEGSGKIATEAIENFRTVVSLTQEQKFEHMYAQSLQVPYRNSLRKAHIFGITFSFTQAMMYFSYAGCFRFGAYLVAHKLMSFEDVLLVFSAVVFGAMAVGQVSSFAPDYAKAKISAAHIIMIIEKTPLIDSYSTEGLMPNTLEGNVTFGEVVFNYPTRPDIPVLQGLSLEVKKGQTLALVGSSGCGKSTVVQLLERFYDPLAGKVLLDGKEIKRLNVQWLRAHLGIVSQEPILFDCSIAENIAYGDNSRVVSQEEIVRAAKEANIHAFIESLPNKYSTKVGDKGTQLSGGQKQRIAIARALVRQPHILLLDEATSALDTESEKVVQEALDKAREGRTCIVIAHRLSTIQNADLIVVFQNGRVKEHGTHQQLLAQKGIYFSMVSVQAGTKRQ

Molecular target: T1, P-glycoprotein 1 (P-gp) (Homo sapiens, UniProt P08183)
T1 construct: its P-gp overexpressing variant (SW1573/PGP); endogenous in cells; host or cells: SW1573 and SW1573/PGP (SW1573/Pgp) human non-small cell lung cancer cells, provided by Dr. G. J. Peters (Amsterdam)
Assay: P-glycoprotein assay (SW1573/PGP vs SW1573, resistance factor)
Type: cell-based
Description: Next, we studied if the compounds could be substrates for P-glycoprotein 1 (P-gp). P-gp is an important protein of the cell membrane that pumps xenobiotics out of cells. One of the resistance mechanisms to anticancer drugs involves the overexpression of P-gp by cancer cells, rendering these cancers multidrug resistant. Therefore, it is relevant to know whether compounds are substrates for P-gp or not. As a model to test the effect of P-gp overexpression in our compounds, we used a cell line-based assay. We selected one wild type human lung cancer cell line (SW1573) and its P-gp overexpressing variant (SW1573/PGP). In this test, cells were exposed to the compounds for 48 h in the absence or the presence of 10 µM verapamil, a well-known P-gp inhibitor [20].
The antiproliferative activity was tested in vitro against human cancer cells using the protocol of the National Cancer Institute (NCI) of the USA16 with minor modifications. The following densities (cells per well) were used: 2500 (A549, HBL-100, HeLa and SW1573), 5000 (T-47D, WiDr and SW1573/PGP), and 7000 (BJ-hTERT). Samples for testing were dissolved initially in DMSO at 40 mM, i.e., 400 times the maximum test concentration. Abiraterone and galeterone were used as reference drugs for antiproliferative tests, verapamil was used as a P-gp transport inhibitor in SW1573/Pgp experiments, and their stock solutions were prepared in DMSO at 40 mM. Paclitaxel and vinblastine were used as positive controls in SW1573/Pgp experiments and were initially dissolved in DMSO at 4 mM. For each test compound, the cells were exposed to serial decimal dilutions in the range of 0.001–100 μM for a period of 48 h. Cell culture medium containing verapamil was prepared by adding the final concentration of verapamil of 10 μM. For each product GI50 values were calculated according to the NCI formulas.

Substance: 20-Oxopregna-5,16-dien-3β-yl Acetate [Compound 6]
- substrate for P-gp (SW1573 vs SW1573/PGP, with or without 10 µM verapamil): not substrates for P-gp
- Rf w Verapamil (ratio between GI50 values in SW1573/PGP and SW1573 cells, with 10 µM verapamil): 1.3
- Rf w/o Verapamil (ratio between GI50 values in SW1573/PGP and SW1573 cells, without verapamil): 1.4
